Results on 1 molecule are retold here after ChEMBL document CHEMBL1125023, “Flexible N-methyl-4-phenyl-1,2,3,6-tetrahydropyridine analogues: synthesis and monoamine oxidase catalyzed bioactivation” (J Med Chem, 1990).

The chains behind the UniProt entries cited, without tags or fusion partners. Where a name states a change or a piece, a line headed by the entry shows the natural chain unless it says otherwise.
UniProt P19643: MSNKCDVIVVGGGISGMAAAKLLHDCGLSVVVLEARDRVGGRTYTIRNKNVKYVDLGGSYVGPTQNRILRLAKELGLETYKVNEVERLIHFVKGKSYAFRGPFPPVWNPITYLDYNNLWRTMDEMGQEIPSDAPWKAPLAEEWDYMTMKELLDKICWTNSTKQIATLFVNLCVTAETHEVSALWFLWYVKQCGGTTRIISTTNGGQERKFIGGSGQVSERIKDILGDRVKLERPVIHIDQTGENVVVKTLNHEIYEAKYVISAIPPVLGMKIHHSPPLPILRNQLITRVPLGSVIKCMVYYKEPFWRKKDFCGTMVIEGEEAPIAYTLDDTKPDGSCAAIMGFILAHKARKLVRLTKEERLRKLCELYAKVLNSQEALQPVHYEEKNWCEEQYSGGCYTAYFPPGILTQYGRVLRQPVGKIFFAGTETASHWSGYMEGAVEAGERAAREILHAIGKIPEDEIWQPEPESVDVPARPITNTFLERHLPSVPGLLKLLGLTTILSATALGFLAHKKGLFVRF
UniProt P21396: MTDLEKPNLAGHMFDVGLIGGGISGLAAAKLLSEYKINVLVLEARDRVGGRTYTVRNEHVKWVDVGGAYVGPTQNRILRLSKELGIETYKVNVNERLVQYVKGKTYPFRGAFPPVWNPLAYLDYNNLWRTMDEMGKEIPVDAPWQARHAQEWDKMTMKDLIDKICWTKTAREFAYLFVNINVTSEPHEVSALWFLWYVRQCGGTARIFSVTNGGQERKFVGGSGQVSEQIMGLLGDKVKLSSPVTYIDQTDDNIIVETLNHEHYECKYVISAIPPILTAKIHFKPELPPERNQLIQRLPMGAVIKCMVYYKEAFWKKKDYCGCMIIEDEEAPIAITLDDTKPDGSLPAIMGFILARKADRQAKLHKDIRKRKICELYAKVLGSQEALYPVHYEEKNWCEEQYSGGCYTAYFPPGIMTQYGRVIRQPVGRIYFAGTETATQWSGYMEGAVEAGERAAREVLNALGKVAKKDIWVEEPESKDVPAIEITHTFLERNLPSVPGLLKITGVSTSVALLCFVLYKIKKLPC

The target in one data set is Monoamine oxidase (Rattus norvegicus, UniProt P19643+P21396). Briefly: Ratio of Kinetic constants (Km vs. Vmax). Type of data set: protein assay.
In data set [1] the test system is Monoamine oxidase (Rattus norvegicus). Briefly: Percent inhibition of MAO-catalyzed oxidation in rat brain mitochondria induced by pargyline.

By Inhibition is commonly meant the percentage by which the read-out fell short of the control. Low values mean a response near the control, high ones a response far below the control. `CN1CC=C(c2ccccc2)CC1`: the Ratio at Monoamine oxidase is 2.2. In data set [1], the Inhibition worked out at 100%.
